Chains of the proteins cited; added tags and fusions are not shown.
UniProt P30411, whole entry: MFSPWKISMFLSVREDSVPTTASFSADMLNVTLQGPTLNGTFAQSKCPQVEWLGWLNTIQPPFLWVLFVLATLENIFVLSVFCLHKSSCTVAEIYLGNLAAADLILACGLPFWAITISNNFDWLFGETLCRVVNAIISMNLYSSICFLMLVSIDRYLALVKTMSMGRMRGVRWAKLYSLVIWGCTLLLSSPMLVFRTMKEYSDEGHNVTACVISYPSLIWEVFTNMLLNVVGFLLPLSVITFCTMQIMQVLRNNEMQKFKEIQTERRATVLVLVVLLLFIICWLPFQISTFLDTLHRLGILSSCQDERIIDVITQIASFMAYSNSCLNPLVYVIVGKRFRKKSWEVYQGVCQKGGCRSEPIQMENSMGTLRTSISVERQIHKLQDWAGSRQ

According to ChEMBL document CHEMBL1955756, “Design and synthesis of novel sulfonamide-containing bradykinin hB(2) receptor antagonists. Synthesis and structure-relationships of α,α-tetrahydropyranylglycine” (Bioorg Med Chem, 2012):

Key:
Assay type in all cases: functional, cell-based
[1] = target: T1, B2 bradykinin receptor (Homo sapiens, UniProt P30411); experiment: (§1) Reversible antagonist activity at human bradykinin B2 receptor expressed in dhfr-deficient CHO cells assessed as inhibition of bradykinin-induced inositol monophosphate accumulation at 3 uM preincubated for 15 mins prior bradykinin induction measured after 45 mins washout by liquid scintillation spectrometry
In short: (§2)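 Washout in the IP accumulation assay in CHO/hB2R cells: antagonist (3 µM or 100 nM) pre-incubated 15 min, with medium then fully replaced every 15 min in washed cells. BK (2 nM) added and the reaction stopped after one hour; IP formed quantified. Expressed as % inhibition of time-matched BK responses in vehicle-pre-incubated cells.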

[2] = target: T1, B2 bradykinin receptor; experiment: as §1, with “30” for “45”; in short: as §2
[3] = target: T1, B2 bradykinin receptor; experiment: as §1, with “15” for “45”; in short: as §2

## Cc1cc(C)c2cccc(OCc3c(Cl)ccc(S(=O)(=O)NC4(C(=O)N5CCN(C(=O)[C@@H](N)CCC[N+](C)(C)C)CC5)CCOCC4)c3Cl)c2n1 [FASITIBANT]
[1]
  inhibition: 52%
[2]
  inhibition: 60%
[3]
  inhibition: 96%
